Earlier results on 1 compound are cited in patent US8940724B2, “Quinoline derivitives and their uses” (Amgen Inc., priority 2009, dated 2015).

Chains of the proteins cited; added tags and fusions are not shown.
UniProt P42338, whole entry, species assumed: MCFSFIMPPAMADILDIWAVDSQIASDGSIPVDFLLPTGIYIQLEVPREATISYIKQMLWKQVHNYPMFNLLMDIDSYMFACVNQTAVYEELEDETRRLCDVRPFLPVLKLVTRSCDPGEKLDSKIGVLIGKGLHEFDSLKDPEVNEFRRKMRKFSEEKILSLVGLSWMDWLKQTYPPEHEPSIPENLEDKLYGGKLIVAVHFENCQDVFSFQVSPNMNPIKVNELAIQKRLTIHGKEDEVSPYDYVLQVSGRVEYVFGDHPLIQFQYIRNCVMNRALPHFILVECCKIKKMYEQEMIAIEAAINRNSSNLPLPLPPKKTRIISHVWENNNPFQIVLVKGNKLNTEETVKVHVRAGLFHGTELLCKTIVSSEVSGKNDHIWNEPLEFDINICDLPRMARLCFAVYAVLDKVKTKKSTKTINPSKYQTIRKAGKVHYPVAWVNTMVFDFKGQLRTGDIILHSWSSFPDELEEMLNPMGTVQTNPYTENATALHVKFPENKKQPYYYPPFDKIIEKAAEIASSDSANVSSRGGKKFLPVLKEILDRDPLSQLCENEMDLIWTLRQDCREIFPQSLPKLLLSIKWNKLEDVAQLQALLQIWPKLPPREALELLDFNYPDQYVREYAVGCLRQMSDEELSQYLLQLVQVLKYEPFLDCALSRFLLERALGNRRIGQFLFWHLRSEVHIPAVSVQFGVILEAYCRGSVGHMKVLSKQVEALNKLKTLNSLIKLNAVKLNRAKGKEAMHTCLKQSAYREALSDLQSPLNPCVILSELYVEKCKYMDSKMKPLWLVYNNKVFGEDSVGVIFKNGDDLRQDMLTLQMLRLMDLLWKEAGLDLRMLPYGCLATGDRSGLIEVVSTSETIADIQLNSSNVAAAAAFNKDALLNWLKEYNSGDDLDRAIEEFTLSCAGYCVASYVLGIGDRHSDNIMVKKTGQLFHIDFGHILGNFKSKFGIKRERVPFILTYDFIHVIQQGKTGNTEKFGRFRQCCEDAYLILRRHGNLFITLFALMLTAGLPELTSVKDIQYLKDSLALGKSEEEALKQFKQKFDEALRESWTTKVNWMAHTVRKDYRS

For this series, the target named is p110β (Homo sapiens, UniProt P42338). As to conditions: read-out: potency on beta; cited from earlier work.

With `Cc1cc(C(C)Nc2ccccc2)c2nc(N3CCOCC3)cc(=O)n2c1` (stereo not shown) [TGX-221], the IC50 was 7 nM.
